Measured values from patent US20100278751A1, “RADIOLABELED 2-AMINO-4-ALKYL-6-(HALOALKYL)PYRIDINE COMPOUNDS AND THEIR USE IN DIAGNOSTIC IMAGING” (WASHINGTON UNIVERSITY, priority 2009, published 2010).

Protein sequences, listed by entry. Tags and fused reporters are not part of them.
UniProt P35228, whole entry: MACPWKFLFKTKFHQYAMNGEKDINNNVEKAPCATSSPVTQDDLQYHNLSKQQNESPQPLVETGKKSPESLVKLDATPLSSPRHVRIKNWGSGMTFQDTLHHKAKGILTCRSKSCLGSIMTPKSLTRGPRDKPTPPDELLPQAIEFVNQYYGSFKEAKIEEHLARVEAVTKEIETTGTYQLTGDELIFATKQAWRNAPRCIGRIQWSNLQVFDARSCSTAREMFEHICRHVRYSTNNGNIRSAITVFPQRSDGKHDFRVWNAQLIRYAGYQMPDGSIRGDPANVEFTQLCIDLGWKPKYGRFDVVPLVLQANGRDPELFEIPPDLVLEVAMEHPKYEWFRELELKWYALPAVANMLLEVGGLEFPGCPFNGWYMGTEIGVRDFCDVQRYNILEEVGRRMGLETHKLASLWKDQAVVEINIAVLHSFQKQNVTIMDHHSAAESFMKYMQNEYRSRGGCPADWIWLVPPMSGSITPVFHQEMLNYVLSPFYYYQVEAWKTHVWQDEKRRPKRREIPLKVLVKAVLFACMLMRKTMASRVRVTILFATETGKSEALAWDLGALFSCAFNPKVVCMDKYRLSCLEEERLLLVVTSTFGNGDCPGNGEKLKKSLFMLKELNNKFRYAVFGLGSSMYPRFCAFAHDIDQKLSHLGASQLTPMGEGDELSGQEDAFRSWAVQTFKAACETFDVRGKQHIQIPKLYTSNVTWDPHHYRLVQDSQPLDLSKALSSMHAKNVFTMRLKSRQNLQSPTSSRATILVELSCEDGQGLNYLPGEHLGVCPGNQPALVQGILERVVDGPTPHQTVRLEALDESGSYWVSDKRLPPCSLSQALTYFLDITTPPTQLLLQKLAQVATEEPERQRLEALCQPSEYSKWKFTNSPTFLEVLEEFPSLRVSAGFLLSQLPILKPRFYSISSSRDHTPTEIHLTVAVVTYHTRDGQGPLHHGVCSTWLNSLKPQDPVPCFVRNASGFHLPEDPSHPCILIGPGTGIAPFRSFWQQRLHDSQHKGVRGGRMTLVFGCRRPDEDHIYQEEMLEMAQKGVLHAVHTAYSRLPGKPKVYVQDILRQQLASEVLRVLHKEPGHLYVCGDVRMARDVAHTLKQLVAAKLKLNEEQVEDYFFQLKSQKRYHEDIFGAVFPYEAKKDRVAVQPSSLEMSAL

Each molecule was assayed against iNOS (Homo sapiens, UniProt P35228) (assay: iNOS activity, nitric oxide synthase screening kit (IC50)). Conditions: read-out: IC50 of tested compounds.
Assay type: biochemical

| IC50 [nM] | Compound |
| --- | --- |
| > 5000 | COc1ccnc(NC2CCN(C(=O)c3cccc(Br)c3)CC2)c1 |
| 789 | COc1ccnc(NC2CCN(C(=O)c3ccc(Cl)cc3)CC2)c1 |
| 800 | COc1ccnc(NC2CCN(C(=O)c3ccc(Br)cc3)CC2)c1 |
| 1170 | COc1ccnc(NC2CCN(C(=O)c3ccc(F)cc3)CC2)c1 |
